According to PMC10141580, “Cyclic Dichalcogenides Extend the Reach of Bioreductive Prodrugs to Harness Thiol/Disulfide Oxidoreductases: Applications to seco-Duocarmycins Targeting the Thioredoxin System” (ACS Central Science, 2023):

Tested on: panel of 140 standard cancer cell lines
Experiment: ProliFiler-140 cancer cell line screen (CellTiterGlo, 72 h)
Assay type: cell-based
Conditions: listed as Dox
Experimental: Incubations were performed for 72 h before automated viability readout with CellTiterGlo (Figure 8).
End of Figure S11 (part 5 of 5): ProliFiler-140 cancer cell line screening for cytotoxicity of the prodrugs.
8-data-point dose response curves from CellTiter-Glo® viability readout.
ProliFiler-140 cell line panel part V

- IC50 (BEN (Lung)): 4070 nM
- IC50 (Colo 205 (Colon)): 148 nM
- IC50 (MCF-7 (Breast)): 231 nM
SMILES: COc1cccc2c1C(=O)c1c(O)c3c(c(O)c1C2=O)C[C@@](O)(C(=O)CO)C[C@@H]3O[C@H]1C[C@H](N)[C@H](O)[C@H](C)O1 [doxorubicin, reference compound]
